The assay has as its target Glutamate NMDA receptor. As to the kind of experiment: Tested for the ability to inhibit [3H]MK-801 binding to NMDA receptor of rat cortical membranes in the presence of glutamate (1 uM).

Among the data in ChEMBL document CHEMBL1127100, “Structure-activity relationships of a series of glycine antagonists related to 5,7-dichlorokynurenic acid and 3-(2-carboxy-6-chloroindol-3-yl)acetic acid” (Bioorg Med Chem Lett, 1993) are IC50 values, retold here.

In general, IC50 refers to the point on the concentration scale where inhibition reaches its midpoint.

On to `O=C(O)c1cc(=O)c2ccccc2[nH]1` [TRANSTORINE], for which the IC50 is 40.3 µM.
